The record followed here is the NIST ThermoML archive (doi:10.1021/acs.jced.9b00350).

Numbers after ± are expanded uncertainties.

Data set [1] in a line: Molar enthalpy of transition or fusion. The following applies: Crystal; DSC.
For data set [2] the following is noted: Crystal; DSC.

As for `NC(=O)c1ccccc1N` [anthranilamide], in data set [1], the “Molar enthalpy of transition or fusion” value worked out at 5.23 ± 0.167 kcal/mol. Moreover, in data set [2], the Triple point temperature is listed as 383.65 ± 0.93 K.
